Experimental data reported in patent publication US20110312984A1, “STAT3 INHIBITORS” (priority 2008, published 2011).

Chains of the proteins cited; added tags and fusions are not shown. Residues count along the entry.
UniProt P40763, 2-770 limits assumed: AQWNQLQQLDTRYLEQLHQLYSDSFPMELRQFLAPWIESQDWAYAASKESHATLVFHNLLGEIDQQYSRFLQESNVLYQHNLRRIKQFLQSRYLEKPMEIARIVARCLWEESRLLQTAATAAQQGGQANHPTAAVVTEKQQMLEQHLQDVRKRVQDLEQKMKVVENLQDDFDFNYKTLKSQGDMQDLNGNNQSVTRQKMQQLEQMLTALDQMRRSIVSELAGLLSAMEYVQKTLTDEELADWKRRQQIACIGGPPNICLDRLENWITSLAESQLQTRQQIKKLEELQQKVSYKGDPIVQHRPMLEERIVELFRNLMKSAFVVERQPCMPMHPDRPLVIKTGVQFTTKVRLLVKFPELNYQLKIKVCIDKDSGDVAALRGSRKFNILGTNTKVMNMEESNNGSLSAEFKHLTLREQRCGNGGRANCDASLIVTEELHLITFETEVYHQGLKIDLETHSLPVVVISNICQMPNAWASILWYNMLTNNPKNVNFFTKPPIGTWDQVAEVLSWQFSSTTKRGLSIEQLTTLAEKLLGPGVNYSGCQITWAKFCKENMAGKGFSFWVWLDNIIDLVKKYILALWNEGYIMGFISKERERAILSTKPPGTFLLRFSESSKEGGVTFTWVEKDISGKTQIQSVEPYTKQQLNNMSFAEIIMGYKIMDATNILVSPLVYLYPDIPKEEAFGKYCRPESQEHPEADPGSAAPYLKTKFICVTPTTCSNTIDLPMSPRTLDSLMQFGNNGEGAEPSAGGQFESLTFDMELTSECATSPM

Target: T1, Stat3:hSIE complexes (Homo sapiens, UniProt P40763)
T1 construct: endogenous in cells; host or cells: HepG2
Assay: Electrophoretic mobility shift assay (EMSA) with hSIE probe, extracts of IL-6-stimulated HepG2 cells
Type: biochemical
Details: 300 μM, 60 minutes at 37° C.
Experimental: Electrophoretic Mobility Shift Assay (EMSA): EMSA was performed using the hSIE radiolabeled duplex oligonucleotide as a probe as described (Tweardy et al., 1995). Briefly, high salt extracts were prepared from HepG2 cells incubated without or with IL-6 (30 ng/ml) for 30 minutes. Protein concentration was determined by Bradford Assay and 20 ug of extract was incubated with compound (300 uM) for 60 minutes at 37° C. […] Gels were dried and autoradiographed.

COC(=O)Cc1c(C)c2ccc(OCc3ccc(C(=O)OC)cc3)c(C)c2oc1=O [Cpd3-7, methyl 4-({[3-(2-methyoxy-2-oxoethyl)-4,8-dimethyl-2-oxo-2H-chromen-7-yl]oxy}methyl)benzoate]
amount of hSIE shifted (Stat3:hSIE band intensity): reduced the amount of hSIE shifted by half or greater
